# AlphaSeq binding of Ab-14 heavy chain variants to a spike HR2 peptide

Target peptide (SARS-CoV-2 spike, HR2 region): PDVDLGDISGINAS

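The starting antibody came from a phage panning campaign against this peptide. Library AAYL49 holds single substitutions and randomly drawn double and triple substitutions in the CDRs. In AlphaSeq, yeast of one mating type display the scFv and yeast of the other type display the target. Pairs that bind mate more often; barcode pairs of the diploids are counted by sequencing. Scores were corrected for input abundance and mapped to Kd with protein pairs of known affinity run in the same pool. There are three technical replicates.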

Parent scFv Ab-14: VH joined to VL by three GGGGS repeats. Changes lie in the heavy chain CDRs alone.
VH: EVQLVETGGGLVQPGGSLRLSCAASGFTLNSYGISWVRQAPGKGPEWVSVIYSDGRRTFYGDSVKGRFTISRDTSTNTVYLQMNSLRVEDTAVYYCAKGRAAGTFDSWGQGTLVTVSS
VL: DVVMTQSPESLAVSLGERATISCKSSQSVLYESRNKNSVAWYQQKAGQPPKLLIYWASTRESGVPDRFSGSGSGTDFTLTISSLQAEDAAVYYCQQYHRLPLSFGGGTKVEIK

The parent's heavy chain CDRs are GFTLNSYGIS, VIYSDGRRTFYGDSVK, GRAAGTFDS; each variant's own CDRs replace them letter for letter. The read-out is the apparent dissociation constant on a log10 scale (nM): the lower, the stronger. "nd" means that the variant was in the library but no mating with the target was seen in that replicate; the authors take this as a sign of poor binding, and no number exists. Background: pairings of library AAYL49 with three empty control strains gave a value in 15% of cases (median 4.06, 5th percentile 2.83). Values in that range, when seen in few replicates, are hard to tell from nonspecific mating. For each scFv, signals with the empty controls are counted beside the result, with their mean in brackets.

CDR-H1,CDR-H2,CDR-H3,"log10 Kd, replicates",control signals
GFTLNSYGID,VIYSDGRRTFRGDSVD,GRAAGTFDS,nd nd nd,2 of 9 (4.22)
GFTLNSYGIS,VIYSDGRRTFYGDSVK,ERAAGTVDS,1.38 1.27 1.38,2 of 9 (3.61)
GFTTNSYGES,VIYSDGRATFYGDSVK,GRAAGTFDS,nd nd nd,1 of 9 (3.41)
GFTLNSYGIS,VHYSDGRRTFYGDSVK,GRAAGTEYS,4.65 nd nd,1 of 9 (4.88)
GFTLNSYGTS,VIYSDGRRTFYGDSVK,GRAAGTFDC,nd 4.18 2.75,2 of 9 (3.54)
GFTLNSYGIS,VEYSDGRRPFYGDSIK,GRAAGTFDS,nd 4.45 nd,2 of 9 (4.15)
GFTLNSYGIS,VIYGDGRVTFYGDSFK,GRAAGTFDS,nd nd nd,1 of 9 (4.25)
GFTLNSYGLS,VIYSDGRGTFYGDSVK,GRAAKTFDS,nd nd nd,2 of 9 (3.59)
GFTLNSYGIS,QIYSDGRMTFYGDSVK,GRAAGNFDS,nd nd 5.22,0 of 9
GFTLNSYWIS,VIYSDGRRIFYGDSVK,GRAAGTFDS,nd 4.38 nd,2 of 9 (4.00)
GFTLNSYGIS,VIYSDGERTFYGDSVK,GRQAGTFDS,nd nd nd,1 of 9 (2.17)
GFTLNSYGIS,VIYSDGRRTFYGDSVK,CRSAGTFDI,1.41 1.59 1.64,2 of 9 (3.41)
FFTLNVYGIS,VIYSDGRRTFYGDSVK,GRAAGWFDS,nd 4.78 nd,2 of 9 (3.75)
GFTLNSYGIK,YIYSDGRRTFYGDSYK,GRAAGTFDS,nd nd 3.85,3 of 9 (3.83)
GFTLNSYGIS,AIYSDGRRTFYSDSVK,GIAAGTFDS,3.63 nd nd,3 of 9 (4.17)
GFTLNSYGIQ,VIYSDGRRTFYGDSYK,GRAAGTFDW,4.55 nd nd,4 of 9 (4.41)
GFTLNSYGIS,VIYSDGRRTFYIDSVK,GRAAWTFDI,nd nd nd,0 of 9
GFTINSYGIS,VIYSDGRRKFYGDSVK,GRAAGTFDS,0.98 0.94 1.01,1 of 9 (3.25)
GFTLNCYNIS,VIYSDGRRTFYGDSVK,QRAAGTFDS,3.50 nd 6.11,6 of 9 (4.96)
GFTENSYGIS,VIYSDGRRTFYGDSVK,CRYAGTFDS,nd nd nd,0 of 9
GFTLNSYGIS,VIYSDGRRSFYGDYVK,GRAAGTFSS,nd nd nd,0 of 9
AFTLNSYGIS,VIYSDGRRTFYGKSVD,GRAAGTFDS,4.18 3.91 4.97,4 of 9 (4.43)
GFTLNKYGIS,VIYSDRRRTTYGDSVK,GRAAGTFDS,nd 5.16 3.48,2 of 9 (3.90)
GFTLNSYGIS,VIYSWGRRTFYGDSVE,GRAAGAFDS,nd nd nd,0 of 9
GFVLNSYGIS,VIYSDGRHTFYGDKVK,GRAAGTFDS,5.05 3.84 3.72,1 of 9 (3.53)
GFTLNSYGIS,VIYSDIRRTFYGDSVE,GRAATTFDS,nd 3.84 nd,2 of 9 (3.44)
RFQLNSYGIS,VIYSDGRRTFYGDSIK,GRAAGTFDS,nd nd nd,3 of 9 (4.32)
GFTLNSYGIP,VIYSDGRRTFYGDSVK,GYAAGTFDS,5.05 3.30 nd,4 of 9 (4.18)
GFTLNSYAIS,VIYCDGRRTFCGDSVK,GRAAGTFDS,3.22 nd nd,1 of 9 (3.46)
GFTLNSYGIS,VIASDGRRQFYTDSVK,GRAAGTFDS,nd nd nd,1 of 9 (5.22)
GFILNLYGIS,VIYSDGRRTFYGDSVK,GRAAGTFDR,2.78 2.96 2.90,6 of 9 (4.62)
GGTLNSYGVS,VIYSDGRRTFYGDSVK,GRAAGTFMS,4.93 nd nd,0 of 9
GFTLNSYGIS,CIYSDGLRTFYMDSVK,GRAAGTFDS,nd 2.46 nd,1 of 9 (3.15)
GFTLNSYGIW,VIYSDGRRTFYLDSVK,GRAAGTEDS,nd 3.34 nd,0 of 9
GFTLNAYGIR,VIYSDGRRTFYGDSVK,RRAAGTFDS,3.98 nd nd,1 of 9 (4.20)
GFTLNSYGIS,VIYSDGMRTFYGDSKK,GRAAGLFDS,nd nd nd,1 of 9 (3.41)
GFLLPSYGIS,VIYSDGRRTFYGDSVK,GRASGTFDS,nd nd nd,0 of 9
GFTLNSYGIS,VIYSDGRRTFYGDAVK,GRAAGNFDD,0.72 0.99 0.91,1 of 9 (3.81)
GFYLNSYGIS,VIYSDGRRTFYGDSEK,PRAAGTFDS,nd nd nd,0 of 9
GFTLNSYGIS,VIYSDPRRPFYGDSVK,GRAAGTFDS,nd nd nd,0 of 9

Again, the first 6 entries without any signal:

CDR-H1	CDR-H2	CDR-H3	log10 Kd, replicates	control signals
GFTLNSYGID	VIYSDGRRTFRGDSVD	GRAAGTFDS	nd nd nd	2 of 9 (4.22)
GFTTNSYGES	VIYSDGRATFYGDSVK	GRAAGTFDS	nd nd nd	1 of 9 (3.41)
GFTLNSYGIS	VIYGDGRVTFYGDSFK	GRAAGTFDS	nd nd nd	1 of 9 (4.25)
GFTLNSYGLS	VIYSDGRGTFYGDSVK	GRAAKTFDS	nd nd nd	2 of 9 (3.59)
GFTLNSYGIS	VIYSDGERTFYGDSVK	GRQAGTFDS	nd nd nd	1 of 9 (2.17)
GFTLNSYGIS	VIYSDGRRTFYIDSVK	GRAAWTFDI	nd nd nd	0 of 9

For reference, the parent read 0.65 as the reference entry and 4.11 (one replicate of three) as a member of this library.

From the AlphaSeq antibody data of Engelhart et al. 2022 (doi:10.1038/s41597-022-01779-4), copy in the FLAb collection.